Measurements from BindingDB's records for PubMed 10617681 (Dupont Pharmaceuticals, 2000).

Chains of the proteins cited; added tags and fusions are not shown. Lines headed by an entry give the natural chain unless they say otherwise; changes in a name come on top.
UniProt P28335: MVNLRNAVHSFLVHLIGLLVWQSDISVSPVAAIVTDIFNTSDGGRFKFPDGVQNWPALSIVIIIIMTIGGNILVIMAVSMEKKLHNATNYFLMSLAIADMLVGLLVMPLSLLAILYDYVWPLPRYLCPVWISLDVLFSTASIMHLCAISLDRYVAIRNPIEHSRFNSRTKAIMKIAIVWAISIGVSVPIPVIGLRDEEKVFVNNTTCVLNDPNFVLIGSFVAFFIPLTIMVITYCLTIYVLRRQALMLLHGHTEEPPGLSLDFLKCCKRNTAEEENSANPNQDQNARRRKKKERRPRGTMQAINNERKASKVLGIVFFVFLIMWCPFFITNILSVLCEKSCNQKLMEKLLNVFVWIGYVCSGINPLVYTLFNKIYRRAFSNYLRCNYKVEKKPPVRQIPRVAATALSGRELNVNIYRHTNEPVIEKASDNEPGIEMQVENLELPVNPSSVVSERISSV

Target: 5-hydroxytryptamine receptor 2C (Homo sapiens, UniProt P28335)

## CCN[C@H](C)Cc1cccc(C(F)(F)F)c1 [NSC_65801]
  Ki: 1620 nM
